Laboratory results from patent publication US6791003B1.
Only a part of the results on these compounds is given; other tests are left out.

Test: in vitro skin flux of fentanyl through cadaver skin in a diffusion cell
Details: first laminated layer alone, method of J. Pharm. Sci. (1983) 72:968

CCC(=O)N(c1ccccc1)C1CCN(CCc2ccccc2)CC1
flux of fentanyl from the first laminated layer through the skin: 0.2˜3.0 μg/cm^2/hr
